Values quoted from earlier work, collected in US20140193463A1, “PEPTIDE FOR INHIBITING DIPEPTIDYL-PEPTIDASE IV” (CHINA MEDICAL UNIVERSITY, priority 2013, published 2014).

Sequences of proteins named here, by UniProt entry; tags and fusion partners are left off.
UniProt P27487, whole entry, species assumed: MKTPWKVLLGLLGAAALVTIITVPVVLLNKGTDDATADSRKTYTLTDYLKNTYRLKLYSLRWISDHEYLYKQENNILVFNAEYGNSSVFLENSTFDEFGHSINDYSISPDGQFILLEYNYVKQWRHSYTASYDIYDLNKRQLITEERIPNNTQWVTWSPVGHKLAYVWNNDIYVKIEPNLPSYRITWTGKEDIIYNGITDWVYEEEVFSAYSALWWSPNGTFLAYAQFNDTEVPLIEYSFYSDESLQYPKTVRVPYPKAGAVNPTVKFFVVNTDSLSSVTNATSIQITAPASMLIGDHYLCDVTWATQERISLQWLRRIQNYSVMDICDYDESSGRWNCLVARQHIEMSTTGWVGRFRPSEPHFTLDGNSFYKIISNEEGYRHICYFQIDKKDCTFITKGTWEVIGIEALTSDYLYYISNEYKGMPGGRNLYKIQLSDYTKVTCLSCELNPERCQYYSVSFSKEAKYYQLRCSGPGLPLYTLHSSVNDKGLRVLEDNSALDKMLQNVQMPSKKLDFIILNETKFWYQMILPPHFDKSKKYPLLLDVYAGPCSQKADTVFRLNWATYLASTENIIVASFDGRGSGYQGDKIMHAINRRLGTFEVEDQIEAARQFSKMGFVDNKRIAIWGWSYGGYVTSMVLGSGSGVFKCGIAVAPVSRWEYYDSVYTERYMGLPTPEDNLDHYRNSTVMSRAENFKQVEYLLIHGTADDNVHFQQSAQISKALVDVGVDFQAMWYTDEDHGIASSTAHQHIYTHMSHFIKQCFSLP

Target: DPP-IV (Homo sapiens, UniProt P27487)
Conditions: cited from earlier work

Val-Pro-Leu [Diprotin B]
IC50 values, inhibitory activity on DPP-IV (isolated from culture filtrates of Bacillus cereus BMF673-RF1, related art): 5.5 µg/mL | IC50 (previous studies, read-out: IC50 values against DPP-IV): 16.8 µM
